Results on 117 molecules are retold here after PubChem BioAssay AID602393 (Broad Institute, 2012).

Molecules are shown by their SMILES. The entries are a selection whose mix differs from that of the whole data set. Calls of active or inactive are those of the source. Cut-off read from the data, not from the text of the source: active = activation above about 40%; inconclusive = no clear call, values can overlap the other calls; inactive = below that.

The test in a line: raisers of Bmi1 knock-in reporter signal – mouse ES cells, Bmi1 luciferase knock-in, single point, esBAF inhibitor project, primary screen (AID 602393).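 Note: 0% = median of the plate's neutral control wells and 100% = double that signal; a rise in the Bmi1 reporter signal indicates esBAF inhibition.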 The note with it: 24 h, at 12.5 µM, hits give high values, 100% = twice the neutral-well signal.
For `COc1ccc(C2=NCC(CBr)S2)cc1` (configuration not stated), the reporter increase was inactive: -9.71%.
On to `CC(=O)N1C2C3N(C(C)=O)C1C1N(C(C)=O)C(C(N1C(C)=O)N3C(C)=O)N2C(C)=O`, for which the reporter increase is inactive: 0.476%.
The figure for `O=[N+]([O-])c1cccc2n[nH]nc12` is inactive: -5.21%.
`CCc1nc2c(n1)c1c(non1O)c1c2no[n+]1[O-]`: the reporter increase is inactive: 0.254%.
For the molecule `Nc1ccc([As](=O)(O)c2ccc(N)cc2)cc1`, the reporter increase was inactive: -1.6%.
Next, `CC(C)c1nc(Nc2ccccc2)n(P(=O)(N(C)C)N(C)C)n1`: inactive: -4.22%; `c1cc(-c2nn[nH]n2)ccc1-c1nn[nH]n1`: inactive: -2.07%; `CC1CCN(C(=O)Oc2c(Cl)cc(Cl)c3cccnc23)CC1`: inactive: 28.7%.
The figure for `O=P1(N(CCCl)CCCl)OCCCS1` (configuration not stated) is inactive: -2.23%; for `O=C(Nc1cc([As](=O)(O)O)ccc1O)c1ccccc1` it is inactive: 1.77%; for `CC(C)(C)C(=O)NC(Sc1ccncn1)C(Cl)(Cl)Cl` (configuration not stated) it is inactive: 5.35%.
Take `O=[N+]([O-])c1cccc(NC2=NCC(CBr)S2)c1` (configuration not stated): the reporter increase is inactive: -1.33%.
Next, `O=C(O)CNc1ccc([As](=O)(O)O)cc1`: inactive: -0.107%; `O=C(O)c1ccccc1[As](=O)(O)O`: inactive: -4%.
On to `CC(=O)Nc1ccc([As](=O)(O)O)cc1`, for which the reporter increase was inactive: -2.17%.
The figure for `CCCC1OP(N)(=O)OCC1CC` (configuration not stated) is inactive: -4.26%; for `CN(C)P(=O)(N(C)C)n1c(Nc2ccccc2)nnc1-c1ccccc1` it is inactive: 15.8%; for `O=P(Nc1nc2ccc(Cl)cc2s1)(c1ccccc1)c1ccccc1` it is inactive: -0.23%.
The figure for `CCOP(=O)(Nc1ccccc1)OCC` is inactive: -9.64%; for `CN(C(=O)Cc1ccc(Cl)c(Cl)c1)[C@H]1CCCC[C@@H]1N1CCCC1` it is inactive: -0.137%.
For the molecule `Cc1ccc(NP(=O)(Oc2ccccc2F)Oc2ccccc2F)nc1`, the reporter increase is inactive: -7.38%.
Next, `Nc1cccc2ccc([As](=O)(O)O)cc12`: inactive: -5.7%.
The figure for `CN(C(=O)Cc1ccc(Cl)c(Cl)c1)[C@H]1CCCC[C@H]1N1CCCC1` is inactive: 1.58%; for `Cc1ccc(N/C(=N/P(=O)(N2CCOCC2)N2CCOCC2)N2CCOCC2)cc1` it is inactive: -7.32%; for `Cc1ccc(OP(=O)(Nc2nccs2)Oc2ccc(C)cc2)cc1` it is inactive: -4.58%.
The figure for `Clc1ccc(Cl)c(NC2=NCC(CBr)S2)c1` (configuration not stated) is inactive: 3.09%; for `CN1CCCC(OC(=O)C(c2ccccc2)c2ccccc2)C1` (configuration not stated) it is inactive: -2.32%.
Take `CC(C)CC(=O)NC(Sc1ccc(Cl)cc1)C(Cl)(Cl)Cl` (configuration not stated): the reporter increase was inactive: 0.93%.
Next, `Oc1ccccc1CNc1ccccn1`: inactive: -2.79%; `O=P1(Nc2nc3ccc(Cl)cc3s2)COc2ccccc2O1` (configuration not stated): inactive: 22.9%.
The figure for `CCc1cc(O)c([N+](=O)[O-])c(C)c1[N+](=O)[O-]` is inactive: -2.15%; for `CC(=O)c1ccc(N2CC2c2ccncc2)cc1` (configuration not stated) it is inactive: 4.27%; for `Cc1ccccc1CN(C)C(=O)COC(=O)C(O)(c1ccccc1)c1ccccc1` it is inactive: 13.1%.
The figure for `C[C@@H]1C=CCP(=O)(Oc2ccccc2)O1` (some centres not stated) is inactive: 2.5%; for `C[C@H]1OP(=O)(Oc2ccccc2)C[C@@H]2O[C@@H]21` (some centres not stated) it is inactive: -6.34%.
Turning to `CC(=O)Nc1ccc([As](=O)(O)O)c(O)c1`, the reporter increase was inactive: -5.33%.
Next, `CC(=O)Nc1ccc(Oc2c([N+](=O)[O-])cc([N+](=O)[O-])cc2[N+](=O)[O-])cc1`: inactive: 2.1%.
Next, `CCNC(=S)/N=C(\N)N[N+](=O)[O-]`: inactive: -3.72%; `O=P1(N(CCCl)CCCl)OCCC2CCCCN21` (configuration not stated): inactive: -1.94%.
The figure for `COC(=O)c1cc2c(s1)N=C(c1ccccc1)N(C)P2(=O)N1CCOCC1` (configuration not stated) is inactive: -9.87%.
For the molecule `O=C(OC1CN2CCC1CC2)c1ccccc1` (configuration not stated), the reporter increase was inactive: -2.08%.
The figure for `CCC(=O)N1C2C3N(C(=O)CC)C1C1N(C(=O)CC)C(C(N1C(=O)CC)N3C(=O)CC)N2C(=O)CC` is inactive: -8.14%; for `CC(NC(=O)COC(=O)C(O)(c1ccccc1)c1ccccc1)c1ccccc1` (configuration not stated) it is inactive: 0.218%; for `Nc1ccc(CCCCOc2ccccc2)cc1` it is active: 66.5%.
The figure for `CN(C)C1(CNC(=O)c2ccc(Cl)c(S(N)(=O)=O)c2)CCCCC1` is inactive: 2.6%.
The figure for `O=P(Nc1ccccn1)(c1ccc(Br)cc1)c1ccc(Br)cc1` is inactive: -1.79%; for `O=P(Nc1nc2ccccc2s1)(c1ccccc1)c1ccccc1` it is inactive: 10.3%; for `C[C@H]1OP(=O)(Oc2ccccc2)[C@H](O)[C@H](O)[C@H]1N=[N+]=[N-]` (some centres not stated) it is inactive: 0.265%.
Regarding `O=[N+]([O-])c1ncn(CCn2cnc([N+](=O)[O-])n2)n1`, the reporter increase was inactive: 2.93%.
Next, `O=[N+]([O-])c1ccc(O)c(/C=N/Nc2ccc([N+](=O)[O-])cc2[N+](=O)[O-])c1`: inactive: -51.4%.
Take `O=[As](O)(c1ccccc1)c1ccc(O)cc1`: the reporter increase was inactive: 2.41%.
Take `Nc1ccc([As](=O)(O)c2ccc([N+](=O)[O-])cc2)cc1`: the reporter increase was inactive: -9.21%.
The figure for `O=C(OC1CN2CCC1CC2)c1cccc(Cl)c1` (configuration not stated) is inactive: -8.36%.
For `O=P(Nc1nccs1)(c1ccccc1)c1ccccc1`, the reporter increase was inactive: -6.11%.
The figure for `c1nnnn1CCn1cnnn1` is inactive: 1.47%; for `CN(CCCl)Cc1cc(Cl)c(NC2=NCCN2)c(Cl)c1` it is inactive: -3.45%.
Next, `CCC1=CC2Cc3nc4ccc(Cl)cc4c(N)c3C(C1)C2` (configuration not stated): inactive: 0.712%.
Next, `O=P1(Nc2ccccn2)COc2ccccc2OC1`: inactive: 3.12%; `CCOP(=O)(NC(=NC(C)c1ccccc1)NC(C)c1ccccc1)OCC` (configuration not stated): inactive: -5.47%; `Clc1n[nH]nc1-c1nn[nH][15n]1`: inactive: -7.89%.
With `O=P1(N(CCCl)CCCl)NCCC(C(F)(F)F)O1` (configuration not stated), the reporter increase is inactive: 1.78%.
Next, `CN(C(=O)Cc1ccc(Cl)c(Cl)c1)[C@@H]1CCCC[C@H]1N1CCCC1`: inactive: -2.74%; `CC(C)/C=N\N=C(\N)N[N+](=O)[O-]`: inactive: -11%.
The figure for `Cc1nn(-c2ccccc2)c2c1P(=O)(N1CCOCC1)N(C)C(c1ccccc1)=N2` (configuration not stated) is inactive: 6.17%; for `Cc1ccc(C(=O)OC2CN3CCC2CC3)cc1` (configuration not stated) it is inactive: -2.95%; for `CC1CCC(C(C)C)C(OP(=O)(Nc2ccccn2)c2ccccc2)C1` (configuration not stated) it is inactive: -8.03%.
Next, `O=C(/C=C/c1ccccc1)OC1CN2CCC1CC2` (configuration not stated): inactive: -7.3%; `CCCC1OP(=O)(Nc2ccccc2)OCC1CC` (configuration not stated): inactive: -5.42%.
On to `O=P1(Nc2ncccn2)COc2ccccc2OC1`, for which the reporter increase is inactive: 0.516%.
The figure for `Cc1ccc(S(=O)(=O)N(CCCN)CCCc2c(C)nc(N)[nH]c2=O)cc1` is inactive: -2.16%; for `NS(=O)(=O)c1cccc(NC(=O)COC(=O)C(O)(c2ccccc2)c2ccccc2)c1` it is inactive: 6.39%.
The figure for `O=P1(Nc2ccc(Br)cn2)COc2ccccc2OC1` is inactive: -2.35%.
With `O=[As](O)(c1cccs1)c1cccs1`, the reporter increase is inactive: -2.8%.
Next, `CS(=O)(=O)c1cc([N+](=O)[O-])c2no[n+]([O-])c2c1`: inactive: -5.33%.
Next, `CCOP1(=S)c2c(C)nn(CCC#N)c2N=C(c2ccccc2F)N1C` (configuration not stated): inactive: 12.9%; `O=P(Nc1nccs1)(c1ccccc1)c1nc2ccccc2s1` (configuration not stated): inactive: 15.5%; `O=C(O)COc1ccc([As](=O)(O)O)cc1[N+](=O)[O-]`: inactive: -2.92%.
The figure for `Nc1ccccc1[As](=O)(O)c1ccccc1` is inactive: -11.3%; for `NC(=O)Nc1ccc([As](=O)(O)O)cc1` it is inactive: -2.01%.
For `O=[N+]([O-])c1ccc2c(c1)nnn2O`, the reporter increase is inactive: -0.424%.
The figure for `CN(C(=O)Cc1ccc(Cl)c(Cl)c1)[C@H]1CC[C@@]2(CCCO2)C[C@@H]1N1CCCC1` is inactive: 1.36%.
The figure for `N#CCCN(C(=O)COC(=O)C(O)(c1ccccc1)c1ccccc1)c1ccc(F)cc1` is inactive: 3.5%; for `CCOP1(=S)c2c(C)nn(CCC#N)c2N=C(c2ccc(F)cc2)N1C` (configuration not stated) it is inactive: -4.48%.
The figure for `CN(C(=O)Cc1ccccc1)[C@@H]1CC[C@]2(CCCO2)C[C@H]1N1CCCC1` is inactive: 1.88%; for `CS(=O)(=O)c1ccc(Cl)c(NC(=O)COC(=O)C(O)(c2ccccc2)c2ccccc2)c1` it is inactive: 2.66%.
On to `O=[As](O)(c1cccc(O)c1)c1cccc(O)c1`, for which the reporter increase was inactive: -8.05%.
As for `Cc1cccc(OCC(=O)OC2CN3CCC2CC3)c1` (configuration not stated), the reporter increase was inactive: -1.94%.
With `CCCOP(=S)(Nc1nc(N)cc(=O)[nH]1)OCCC`, the reporter increase is inactive: 0.851%.
For `Cc1ccc(NCCc2c([N+](=O)[O-])cc([N+](=O)[O-])cc2[N+](=O)[O-])cc1`, the reporter increase was inactive: -7.08%.
The figure for `Nc1cccc2c([As](=O)(O)O)cccc12` is inactive: 1.43%; for `O=C(OC1CN2CCC1CC2)C12CC3CC(CC(C3)C1)C2` (configuration not stated) it is inactive: -2.23%; for `Cc1cc(=O)[nH]c(N[N+](=O)[O-])n1` it is inactive: -3.19%.
Next, `COc1cc(I)ccc1[As](=O)(O)O`: inactive: -7.54%; `O=P1(N(CCCl)CCCl)Nc2ccccc2N1`: active: 45.7%; `COc1ccc(N/C(=N/P(=O)(N2CCOCC2)N2CCOCC2)N2CCOCC2)cc1`: inactive: -6.06%.
Next, `O=[N+]([O-])c1cc(Oc2ccc([N+](=O)[O-])cc2C(F)(F)F)cc([N+](=O)[O-])c1`: inactive: 6.61%; `C[As](=O)(O)c1cccc(C(=O)O)c1`: inactive: -3.18%; `COc1cc(C(=O)NCC2(N3CCOCC3)CCCCC2)ccc1OCC(C)C`: inactive: 1.33%.
As to `O=[N+]([O-])c1ccc(-c2cc([N+](=O)[O-])c(O)c([N+](=O)[O-])c2)cc1`, the reporter increase was inactive: -0.213%.
Consider `Cc1ccc(OP(=O)(Nc2ccc([N+](=O)[O-])cn2)Oc2ccc(C)cc2)cc1`, for which the reporter increase is inactive: 0.412%.
Next, `CC(C)c1ccc(OP(=O)(Nc2ccccn2)Oc2ccccc2F)cc1` (configuration not stated): inactive: -12.7%.
Next, `ClCCSc1nnc(-c2cccnc2)o1`: inactive: -2.58%; `CCN(CC)C(=S)SC(NC=O)C(Cl)(Cl)Cl` (configuration not stated): inactive: -13.4%.
As to `O=C(OC1CN2CCC1CC2)c1cccc2[nH]cnc12` (configuration not stated), the reporter increase was inactive: 1.02%.
In the case of `CC1CCNP(=O)(N(CCCl)CCCl)O1` (configuration not stated), the reporter increase was inactive: -6.05%.
Regarding `O=C(O)C(O)c1ccc(N(CCCl)CCCl)cc1` (configuration not stated), the reporter increase is inactive: -9.15%.
The figure for `CCOC(=O)Nc1ccc([As](=O)(O)O)c(O)c1` is inactive: -3.47%; for `CCCCOc1ccc(C(=O)NCC2(N3CCCCC3)CCCCC2)cc1OC` it is inactive: -1.04%; for `COP(=O)(OC)N1CC1c1ccccc1` (configuration not stated) it is inactive: -1.92%.
The figure for `CCOC(=O)Nc1cccc([As](=O)(O)O)c1` is inactive: -3.6%.
The figure for `O=[N+]([O-])c1ccc(Nc2ccc(Oc3ccc([N+](=O)[O-])cc3[N+](=O)[O-])cc2)c([N+](=O)[O-])c1` is inactive: -11.7%; for `COP1(=S)c2c(C)nn(CCC#N)c2N=C(c2ccc(F)cc2)N1C` (configuration not stated) it is inactive: -4.39%; for `O=C(COc1ccccc1)OC1CN2CCC1CC2` (configuration not stated) it is inactive: -9.11%.
Take `O=C(Nc1ccncc1[N+](=O)[O-])c1ccc([N+](=O)[O-])cc1[N+](=O)[O-]`: the reporter increase was inactive: -13.2%.
The figure for `O=C(O)C(=O)c1ccc(N(CCCl)CCCl)cc1` is inactive: -16.9%; for `O=C(OC1CN2CCC1CC2)c1cccc([N+](=O)[O-])c1` (configuration not stated) it is inactive: -8.39%.
The figure for `CSc1ccc(Nc2c([N+](=O)[O-])cc([N+](=O)[O-])cc2[N+](=O)[O-])cc1` is inactive: 3.54%.
